Measurements published in PubChem BioAssay AID624296 (National Center for Advancing Translational Sciences (NCATS), 2012).
The entries are a selection whose mix differs from that of the whole data set. Records with an inconclusive call do not appear. Activity calls are given as the source filed them. Calls come from the whole dose curve; as a rule, active = well fitted activation curve with a large enough effect; inconclusive = small, poorly fitted or top-dose-only effect; inactive = no such curve, though single readings can be large or run the other way.

test: A quantitative high throughput screen for small molecules that induce DNA re-replication in MCF 10a normal breast cells.; note: % of control where 0% means no effect; nearly all actives have a fitted effect of over 50% in size; settings: MCF 10A DNA re-replication, Hoechst nuclear intensity, 48 h; at 46.1 µM (top of the series)

Question: With `CCC(=O)N(c1ccccc1)C1(COC)CCN(CCn2nnn(CC)c2=O)CC1` as the molecule, how does the activity, positive = re-replication read?
Answer: The activity, positive = re-replication was inactive: 6.66%.

Question: Which activity, positive = re-replication does the source give for `CCC(=O)N(c1ccccc1)C1(COC)CCN(CCc2cccs2)CC1` here?
Answer: Its activity, positive = re-replication is inactive: -0.343%.

Question: For `CN(CCCl)CCCl`, which activity, positive = re-replication is on record?
Answer: Its activity, positive = re-replication is inactive: 20.4%.
